The entries are a selection whose mix differs from that of the whole data set. Records with an inconclusive call do not appear. Some salts and complexes are drawn in separate pieces, as the source files them; their charges need not balance. The source made the active and inactive calls. Calls follow the shape of the dose curve; as a rule, active = well fitted inhibition curve with a large enough effect; inconclusive = small, poorly fitted or top-dose-only effect, or another doubt; inactive = no such curve, though single readings can be large or run the other way.

The assay deals with 4'-phosphopantetheinyl transferase ffp (Bacillus subtilis) (UniProt Q9F4F7). Nature of the assay: qHTS Assay for Inhibitors of Bacillus subtilis Sfp phosphopantetheinyl transferase (PPTase).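 Also: the enzyme is Sfp with the accession as filed and its product quenches rhodamine fluorescence; 0% = enzyme reaction without inhibitor and -100% = no enzyme wells.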 To be noted: Biochemical Sfp PPTase activity. (In general: Quantitative high-throughput screening tests each substance at several concentrations.)
On to `O=[N+]([O-])c1cc([N+](=O)[O-])c(NCC2CCS(=O)(=O)C2)c([N+](=O)[O-])c1` (configuration not stated), for which the largest response in the series, negative = inhibition is inactive: -20.8%. `COc1ccc2c(c1O)-c1c(O)c(OC)cc3c1[C@H](C2)[N+](C)(C)CC3.O=[N+]([O-])c1cc([N+](=O)[O-])c([O-])c([N+](=O)[O-])c1[O-]`: the largest response in the series, negative = inhibition is inactive: 0.668%.

As to `O=C(OC1CN2CCC1CC2)c1ccc([N+](=O)[O-])cc1` (configuration not stated), the largest response in the series, negative = inhibition was inactive: -1.96%. As for `O=[N+]([O-])c1cc([N+](=O)[O-])c(OC2CCCCC2O)c([N+](=O)[O-])c1` (configuration not stated), the figure is inactive: -4.86%. As for `O=C(O)c1cccc(Nc2c([N+](=O)[O-])cc([N+](=O)[O-])cc2[N+](=O)[O-])c1`, the figure is inactive: 0.167%; as for `N/C(=N\O)c1c(N)no[n+]1[O-]`, inactive: 0.852%. As for `CCOC(=O)C(CC)C1=NC(C)(C)Cc2ccccc21.O=[N+]([O-])c1cc([N+](=O)[O-])c(O)c([N+](=O)[O-])c1` (configuration not stated), the figure is inactive: 13.7%.

These data come from PubChem BioAssay AID1490 (National Center for Advancing Translational Sciences (NCATS), 2009).
